Data on 13 molecules can be found in EP4603105A1, “PHARMACEUTICAL COMPOSITION CONTAINING CYCLIC COMPOUND HAVING SELECTIVE KRAS INHIBITORY EFFECT AGAINST HRAS AND NRAS” (CHUGAI SEIYAKU KABUSHIKI KAISHA, priority 2022, dated 2024).

Amino acid sequences for entries named in this document (tags omitted). Residues count along the entry.
UniProt P01112, whole entry: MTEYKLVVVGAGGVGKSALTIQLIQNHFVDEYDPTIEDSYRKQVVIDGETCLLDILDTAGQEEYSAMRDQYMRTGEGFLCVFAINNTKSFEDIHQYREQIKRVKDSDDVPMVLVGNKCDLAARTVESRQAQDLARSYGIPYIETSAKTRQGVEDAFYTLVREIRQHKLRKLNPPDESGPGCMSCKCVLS
UniProt P01116, 1-188 isoform 2: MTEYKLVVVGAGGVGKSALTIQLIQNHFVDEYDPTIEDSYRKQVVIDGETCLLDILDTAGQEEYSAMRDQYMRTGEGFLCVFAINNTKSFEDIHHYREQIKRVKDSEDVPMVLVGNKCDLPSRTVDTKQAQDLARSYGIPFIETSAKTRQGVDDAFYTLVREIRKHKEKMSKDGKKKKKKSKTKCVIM
UniProt P01111, whole entry: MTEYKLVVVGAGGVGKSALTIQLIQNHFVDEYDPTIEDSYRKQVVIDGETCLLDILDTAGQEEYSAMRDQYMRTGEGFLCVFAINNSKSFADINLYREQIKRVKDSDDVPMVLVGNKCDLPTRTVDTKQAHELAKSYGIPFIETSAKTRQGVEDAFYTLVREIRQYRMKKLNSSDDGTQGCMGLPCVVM

SMILES strings stand for the structures. Read-outs that look alike come from different tables or passages of the source.

For one experiment, the target named is HRAS wild-type protein (Homo sapiens, UniProt P01112). Description: Binding to HRAS by surface plasmon resonance (SPR), KD and KD ratio to KRAS. Background: Surface plasmon resonance follows binding to a sensor surface in real time, without labels.
For experiment [1], the target named is GDP-bound KRAS wild-type protein (Homo sapiens, UniProt P01116). Kind of experiment: Binding to KRAS by surface plasmon resonance (SPR), dissociation constant KD.
For experiment [2], the target named is GDP-bound NRAS wild-type protein (Homo sapiens, UniProt P01111). Description: Binding to NRAS by surface plasmon resonance (SPR), KD and KD ratio to KRAS.
For experiment [3], the system named is human lung cancer strain NCI-H441. Description: NCI-H441 cell proliferation inhibitory activity (CellTiter-Glo, 4 days). In kind it is cell-based. (ATP-based viability assays read luminescence as a measure of living cells.)
Setting [4] is: ratio of KD with respect to HRAS wild-type protein to KD with respect to KRAS.
Setting [5] is: read-out: KRAS KD, Single Cycle Kinetics, 1:1 binding model.
[6] abbreviates: ratio of KD with respect to GDP-bound NRAS wild-type protein to KD with respect to KRAS.
Setting [7] is: read-out: NCl-H441 IC50, 50% proliferation inhibitory concentration, four days.
The mark [8] stands for this setting: ratio of KD for HRAS wild-type protein to KD for KRAS.
[9] abbreviates: read-out: KRAS KD, 1:1 binding model.
Setting [10] is: ratio of KD for GDP-bound NRAS wild-type protein to KD for KRAS.
Setting [11] is: read-out: NCl-H441 IC50, NCI-H441 cells, 4 days.

With `CC[C@H](C)[C@@H]1NC(=O)[C@H](CC(C)C)N(C)C(=O)C[C@@H](C(=O)N2CCOCC2)N(C)C(=O)[C@H](C2CCCC2)N(C)C(=O)C2(CCC2)NC(=O)[C@@H]2C[C@@H](OCC(C)C)CN2C(=O)[C@H](CCc2cc(F)c(C(F)(F)F)c(F)c2)NC(=O)CN(C)C(=O)[C@H](Cc2ccc(C(F)(F)F)cc2)N2CCCCC[C@@H](C2=O)N(C)C(=O)CN(C)C1=O`, the “HRAS /KRAS” value at HRAS wild-type protein (setting [4]) is “B (a compound having 3 or more and less than 10 is denoted as B)”. The Kd (usually the free concentration of one partner at which half of the binding sites on the other are occupied at equilibrium, for simple one-to-one binding) in experiment [1] (setting [5]) is 1.2 nM. The “NRAS /KRAS” value in experiment [2] (setting [6]) is “B (a compound having 3 or more and less than 10 is denoted as B)”. In experiment [3] (setting [7]), the IC50 worked out at 198 nM.

`CCO[C@@H]1C[C@H]2C(=O)NC3(CCCC3)C(=O)N(C)[C@@H](C3CCCC3)C(=O)N(C)[C@H](C(=O)N(C)C)CC(=O)N(C)[C@@H](CC3CC3)C(=O)N[C@@H]([C@@H](C)CC)C(=O)N(C)CC(=O)N(C)[C@H]3CC[C@@H](C)CN(C3=O)[C@@H](Cc3ccc(C(F)(F)F)cc3)C(=O)N(C)CC(=O)N[C@@H](CCc3ccc(C(F)(F)F)c(Cl)c3)C(=O)N2C1`: on HRAS wild-type protein (setting [4]), the “HRAS /KRAS” value is “B (a compound having 3 or more and less than 10 is denoted as B)”. In addition, the Kd in experiment [1] (setting [5]) is 0.045 nM. The “NRAS /KRAS” value in experiment [2] (setting [6]) is “B (a compound having 3 or more and less than 10 is denoted as B)”. Moreover, the IC50 in experiment [3] (setting [7]) came out at 4.1 nM.

Take `CCO[C@@H]1C[C@H]2C(=O)NC3(CCCC3)C(=O)N(C)[C@@H](C3CCCC3)C(=O)N(C)[C@H](C(=O)N(C)C)CC(=O)N(C)[C@@H](CC3CC3)C(=O)N[C@@H]([C@@H](C)CC)C(=O)N(C)CC(=O)N(C)[C@H]3CC[C@@H](C)CN(C3=O)[C@@H](Cc3ccc(C(F)(F)F)cc3)C(=O)N(C)CC(=O)N[C@@H](CCc3cc(F)c(C(F)(F)F)c(F)c3)C(=O)N2C1`: on HRAS wild-type protein (setting [4]), the “HRAS /KRAS” value is “B (a compound having 3 or more and less than 10 is denoted as B)”. The Kd in experiment [1] (setting [5]) was found to be 0.033 nM. Further, the “NRAS /KRAS” value in experiment [2] (setting [6]) was “B (a compound having 3 or more and less than 10 is denoted as B)”. For the same molecule, the IC50 in experiment [3] (setting [7]) was 1.9 nM.

Take `CCOC1CC2C(=O)NC3(CCC3)C(=O)N(C)C(C(CC)CC)C(=O)N(C)C(C(=O)N(C)C)CC(=O)N(C)C(CC3CCCC3)C(=O)NC(C(C)CC)C(=O)N(C)CC(=O)N(C)C3CC=CCCN(C3=O)C(Cc3ccc(C(F)(F)F)cc3)C(=O)N(C)CC(=O)NC(CCc3ccc4sccc4c3)C(=O)N2C1` (stereo not shown): at HRAS wild-type protein (setting [4]), the “HRAS /KRAS” value was “A (a compound having 10 or more and less than 20 is denoted as A)”. The Kd in experiment [1] (setting [5]) was 1.6 nM. Also, the “NRAS /KRAS” value in experiment [2] (setting [6]) is “AA (a compound having 20 or more is denoted as AA)”. The IC50 in experiment [3] (setting [7]) stood at 55.1 nM.

Take `CCCOC[C@H]1C(=O)N[C@@H]([C@@H](C)CC)C(=O)N(C)CC(=O)N(C)[C@H]2C/C=C\CCN(C2=O)[C@H](Cc2ccc(C)cc2)C(=O)N(C)CC(=O)N[C@H](CCc2ccc(C(F)(F)F)c(OC)c2)C(=O)N2C[C@H](OCC)C[C@@H]2C(=O)NC2(CC(C)(C)C2)C(=O)N(C)[C@@H](CC2CCC2)C(=O)N(C)[C@@H](C(=O)N(C)C)CC(=O)N1C`: the “HRAS /KRAS” value on HRAS wild-type protein (setting [8]) was “A (a compound having 10 or more and less than 20 is denoted as A)”. In experiment [1] (setting [9]), the Kd is 1.2 nM. The “NRAS /KRAS” value in experiment [2] (setting [10]) is “A (a compound having 10 or more and less than 20 is denoted as A)”. Moreover, in experiment [3] (setting [11]), the IC50 was determined as 57.1 nM.

Turning to `CCOC1CC2C(=O)NC3(CCC3)C(=O)N(C)C(C3CCCC3)C(=O)N(C)C(C(=O)N3CCCC3)CC(=O)N(C)C(CC3CCCCC3)C(=O)NC(C(C)CC)C(=O)N(C)CC(=O)N(C)C3CC=CCCN(C3=O)C(Cc3ccc(C)cc3)C(=O)N(C)CC(=O)NC(CCc3cc(F)c(C(F)(F)F)c(F)c3)C(=O)N2C1` (stereo not shown), the “HRAS /KRAS” value at HRAS wild-type protein (setting [4]) was “A (a compound having 10 or more and less than 20 is denoted as A)”. Moreover, in experiment [1] (setting [5]), the Kd came out at 0.3 nM. The “NRAS /KRAS” value in experiment [2] (setting [6]) was “A (a compound having 10 or more and less than 20 is denoted as A)”. In experiment [3] (setting [7]), the IC50 worked out at 27.9 nM.

As to `CCO[C@@H]1C[C@H]2C(=O)NC3(CCC3)C(=O)N(C)[C@@H](C3CCCC3)C(=O)N(C)[C@H](C(=O)N3CCCCC3)CC(=O)N(C)[C@@H](CC(F)F)C(=O)N[C@@H]([C@@H](C)CC)C(=O)N(C)CC(=O)N(C)[C@H]3C/C=C\CCN(C3=O)[C@@H](Cc3ccc(C(F)(F)F)cc3)C(=O)N(C)CC(=O)N[C@@H](CCc3cc(F)c(C(F)(F)F)c(F)c3)C(=O)N2C1`, on HRAS wild-type protein (setting [4]), the “HRAS /KRAS” value was “A (a compound having 10 or more and less than 20 is denoted as A)”. In experiment [1] (setting [5]), the equilibrium dissociation constant (Kd) came out at 0.22 nM. The “NRAS /KRAS” value in experiment [2] (setting [6]) is “AA (a compound having 20 or more is denoted as AA)”. For the same molecule, in experiment [3] (setting [7]), the IC50 was 4.9 nM.

As for `CCC(C)C1NC(=O)C(COC)N(C)C(=O)CC(C(=O)N(C)C)N(C)C(=O)C(C(CC)CC)N(C)C(=O)C2(CC(C)(C)C2)NC(=O)C2CC(OC3CCCC3)CN2C(=O)C(CCc2ccc(Cl)c(Cl)c2)NC(=O)CN(C)C(=O)C(Cc2ccc(C)cc2)N2CCC=CCC(C2=O)N(C)C(=O)CN(C)C1=O` (stereo not shown), the “HRAS /KRAS” value at HRAS wild-type protein (setting [8]) was “A (a compound having 10 or more and less than 20 is denoted as A)”. Also, in experiment [1] (setting [9]), the Kd came out at 0.98 nM. For the same molecule, in experiment [2] (setting [10]), the “NRAS /KRAS” value was “AA (a compound having 20 or more is denoted as AA)”. Moreover, the IC50 in experiment [3] (setting [11]) was determined as 42.2 nM.

Consider `CCCC1C(=O)NC(CC(C)C)C(=O)N(C2CC2)CC(=O)N(C)C2CC=CCCN(C2=O)C(Cc2ccc(C)cc2)C(=O)N(C)CC(=O)NC(CCc2ccc(C(F)(F)F)c(Cl)c2)C(=O)N2CC(OCC)CC2C(=O)NC2(CC(C)(C)C2)C(=O)N(C)C(C2CCCC2)C(=O)N(C)C(C(=O)N(C)C)CC(=O)N1C` (stereo not shown), for which, on HRAS wild-type protein (setting [8]), the “HRAS /KRAS” value is “B (a compound having 3 or more and less than 10 is denoted as B)”. Besides, the Kd in experiment [1] (setting [9]) is 3.6 nM. In experiment [2] (setting [10]), the “NRAS /KRAS” value is “A (a compound having 10 or more and less than 20 is denoted as A)”. In experiment [3] (setting [11]), the IC50 turned out to be 185 nM.

As to `CCOC1CC2C(=O)NC3(CC(C)(C)C3)C(=O)N(C)C(C(CC)CC)C(=O)N(C)C(C(=O)N(C)C)CC(=O)N(C)C(COC)C(=O)NC(C(C)CC)C(=O)N(C3CC3)CC(=O)N(C)C3CC=CCCN(C3=O)C(CC3CCCCC3)C(=O)N(C)CC(=O)NC(CCc3ccc(Cl)c(Cl)c3)C(=O)N2C1` (stereo not shown), on HRAS wild-type protein (setting [8]), the “HRAS /KRAS” value is “A (a compound having 10 or more and less than 20 is denoted as A)”. In addition, the Kd in experiment [1] (setting [9]) was 8.2 nM. In addition, the “NRAS /KRAS” value in experiment [2] (setting [10]) was “A (a compound having 10 or more and less than 20 is denoted as A)”. Moreover, the IC50 in experiment [3] (setting [11]) came to 206 nM.

For `CCOC[C@H]1C(=O)N[C@@H]([C@@H](C)CC)C(=O)N(C2CC2)CC(=O)N(C)[C@H]2C/C=C\CCN(C2=O)[C@@H](Cc2ccc(C(F)(F)F)cc2)C(=O)N(C)CC(=O)N[C@@H](CCc2ccc(C(F)(F)F)c(OC)c2)C(=O)N2C[C@@H](C)C[C@H]2C(=O)N(C)C2(CCC2)C(=O)N(C)[C@@H](C2CCCC2)C(=O)N(C)[C@H](C(=O)N(C)C)CC(=O)N1C`, at HRAS wild-type protein (setting [8]), the “HRAS /KRAS” value is “A (a compound having 10 or more and less than 20 is denoted as A)”. Moreover, the Kd in experiment [1] (setting [9]) stood at 0.064 nM. Further, in experiment [2] (setting [10]), the “NRAS /KRAS” value is “A (a compound having 10 or more and less than 20 is denoted as A)”. In addition, in experiment [3] (setting [11]), the IC50 stood at 4.4 nM.

In the case of `CCCOC[C@H]1C(=O)N[C@@H]([C@@H](C)CC)C(=O)N(C)CC(=O)N(C)[C@H]2C/C=C\CCN(C2=O)[C@H](Cc2ccc(C)cc2)C(=O)N(C)CC(=O)N[C@@H](CCc2ccc(Cl)c(Cl)c2)C(=O)N2C[C@H](OCC)C[C@@H]2C(=O)NC2(CC(C)(C)C2)C(=O)N(C)[C@@H](CC2CCC2)C(=O)N(C)[C@@H](C(=O)N(C)C)CC(=O)N1C`, the “HRAS /KRAS” value on HRAS wild-type protein (setting [8]) is “A (a compound having 10 or more and less than 20 is denoted as A)”. The Kd in experiment [1] (setting [9]) came to 0.62 nM. Besides, in experiment [2] (setting [10]), the “NRAS /KRAS” value was “A (a compound having 10 or more and less than 20 is denoted as A)”. For the same molecule, the IC50 in experiment [3] (setting [11]) is 93.6 nM.

`CCOC[C@H]1C(=O)N[C@@H]([C@@H](C)CC)C(=O)N(C)CC(=O)N(C)[C@H]2C/C=C\CCN(C2=O)[C@@H](Cc2ccc(C)cc2)C(=O)N(C)CC(=O)N[C@@H](CCc2ccc(C(F)(F)F)c(OC)c2)C(=O)N2C[C@@H](C)C[C@H]2C(=O)NC2(CC(C)(C)C2)C(=O)N(C)[C@@H](C2CCCC2)C(=O)N(C)[C@H](C(=O)N(C)CC)CC(=O)N1C`: the “HRAS /KRAS” value at HRAS wild-type protein (setting [8]) was “A (a compound having 10 or more and less than 20 is denoted as A)”. In experiment [1] (setting [9]), the Kd worked out at 0.13 nM. For the same molecule, in experiment [2] (setting [10]), the “NRAS /KRAS” value was “A (a compound having 10 or more and less than 20 is denoted as A)”. In addition, the IC50 in experiment [3] (setting [11]) came out at 9.1 nM.
